Measurements published in US20070053869A1, “Formulation and method for enhancement of gastrointestinal absorption of pharmaceutical agents” (priority 2005, published 2007).

Amino acid sequences for entries named in this document (tags omitted). A change or cut given only in a name is not applied to a line headed by its entry.
UniProt Q9UNQ0: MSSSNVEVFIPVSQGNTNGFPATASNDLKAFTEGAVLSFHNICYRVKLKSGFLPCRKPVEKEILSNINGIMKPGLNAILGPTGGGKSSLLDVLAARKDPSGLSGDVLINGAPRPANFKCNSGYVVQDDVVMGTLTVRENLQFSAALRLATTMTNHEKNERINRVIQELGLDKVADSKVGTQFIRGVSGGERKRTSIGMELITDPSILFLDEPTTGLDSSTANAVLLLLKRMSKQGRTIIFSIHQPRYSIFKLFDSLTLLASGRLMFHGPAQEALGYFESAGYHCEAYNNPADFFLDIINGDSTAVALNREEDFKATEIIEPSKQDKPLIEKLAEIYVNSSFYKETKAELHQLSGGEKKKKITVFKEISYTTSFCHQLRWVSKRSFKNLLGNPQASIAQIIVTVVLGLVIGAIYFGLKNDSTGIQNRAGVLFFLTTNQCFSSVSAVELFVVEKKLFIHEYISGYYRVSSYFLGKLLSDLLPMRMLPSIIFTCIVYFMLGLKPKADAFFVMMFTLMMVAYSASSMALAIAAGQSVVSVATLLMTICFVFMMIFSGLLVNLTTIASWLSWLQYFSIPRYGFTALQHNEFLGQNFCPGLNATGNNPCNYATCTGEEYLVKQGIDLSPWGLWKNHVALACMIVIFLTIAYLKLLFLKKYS
UniProt P08183, whole entry: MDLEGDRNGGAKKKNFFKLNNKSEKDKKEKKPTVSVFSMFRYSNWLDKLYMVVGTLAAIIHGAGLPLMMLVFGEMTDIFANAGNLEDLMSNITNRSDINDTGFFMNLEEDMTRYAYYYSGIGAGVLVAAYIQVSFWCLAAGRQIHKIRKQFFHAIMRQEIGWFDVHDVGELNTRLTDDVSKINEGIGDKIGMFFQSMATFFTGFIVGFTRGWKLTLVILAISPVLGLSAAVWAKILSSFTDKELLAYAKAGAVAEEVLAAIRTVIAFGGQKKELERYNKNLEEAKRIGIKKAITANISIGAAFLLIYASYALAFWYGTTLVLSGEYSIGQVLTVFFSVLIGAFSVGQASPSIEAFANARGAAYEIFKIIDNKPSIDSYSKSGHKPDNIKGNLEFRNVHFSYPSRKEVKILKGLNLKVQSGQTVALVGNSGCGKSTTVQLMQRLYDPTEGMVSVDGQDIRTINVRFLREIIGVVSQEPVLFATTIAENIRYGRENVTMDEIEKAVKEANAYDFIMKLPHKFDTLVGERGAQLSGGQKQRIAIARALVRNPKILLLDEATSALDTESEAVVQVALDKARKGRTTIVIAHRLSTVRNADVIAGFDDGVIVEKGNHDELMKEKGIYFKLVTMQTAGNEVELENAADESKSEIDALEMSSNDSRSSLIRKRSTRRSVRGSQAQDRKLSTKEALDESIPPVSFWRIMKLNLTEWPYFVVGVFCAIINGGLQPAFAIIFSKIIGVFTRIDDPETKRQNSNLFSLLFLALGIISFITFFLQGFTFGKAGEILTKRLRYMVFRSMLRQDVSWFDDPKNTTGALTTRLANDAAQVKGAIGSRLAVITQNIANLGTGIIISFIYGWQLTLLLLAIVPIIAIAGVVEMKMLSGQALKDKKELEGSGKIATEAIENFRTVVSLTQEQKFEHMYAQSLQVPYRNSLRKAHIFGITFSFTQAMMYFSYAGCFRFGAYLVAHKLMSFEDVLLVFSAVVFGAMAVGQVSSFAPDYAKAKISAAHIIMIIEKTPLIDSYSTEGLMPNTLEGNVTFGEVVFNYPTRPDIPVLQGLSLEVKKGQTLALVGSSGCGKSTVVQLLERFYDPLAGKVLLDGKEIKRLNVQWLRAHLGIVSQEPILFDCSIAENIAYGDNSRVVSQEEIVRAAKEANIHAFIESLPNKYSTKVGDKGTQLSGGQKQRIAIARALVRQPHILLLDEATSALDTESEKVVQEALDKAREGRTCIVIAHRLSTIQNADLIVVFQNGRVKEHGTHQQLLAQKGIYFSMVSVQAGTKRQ

Tests used:
ABCG2 = ABCG2 (Homo sapiens, UniProt Q9UNQ0)
Experimental: Methods: For constructing MDCK-II cells expressing human ABCG2 or green fluorescent protein (GFP), MDCK-II cells were infected with recombinant adenoviruses containing human ABCG2 or GFP cDNA at 48 h prior to the experiments. ABCG2 or GFP-transduced cells were preincubated in prewarmed transport buffer for 15 min. Subsequently, [^3H]-mitoxantrone (MTX) was added in transport buffer to apical compartments. Accumulation of radiolabeled substrates was allowed for 2 h at 37° C. with or without an appropriate concentration of pharmaceutical excipients, 20 μM of GF120918 or 5 μM of PSC833. The reactions were arrested by washing cells with ice-cold transport buffer. Cells were solubilized and then the lysates were transferred to a liquid scintillation counter for measurement of radioactivity.
To abolish the influence of endogenous P-gp, PSC833 (P-gp inhibitor) was added during the incubation for 2 h, except that in the samples treated with GF120918 (a shared ABCG2 and P-gp inhibitor) no PSC833 was added.
The inhibitory effect of excipients on ABCG2 was further characterized in an intracellular accumulation study. MDCK-II cells overexpressing ABCG2 (BCRP MDCK-II) and, as controls, MDCK-II cells overexpressing green fluorescence protein (GFP) (GFP MDCK-II) were prepared. Mitoxantrone was used as the substrate. Intracellular mitoxantrone accumulation in the presence or absence of excipients was determined.
To discover the excipients that can inhibit ABCG2, we performed an intracellular accumulation study using BCRP MDCK-II and GFP MDCK-II cells in the absence or presence of excipients. Mitoxantrone was used as the substrate. To abolish the effect of endogenous P-gp, this experiment was performed in the presence of PSC833. […] All of the excipients were used below their cmc, because above their cmc, excipients form micelles that can interact with the substrate, and as a consequence the effective concentration of mitoxantrone in the experimental medium can decrease.

P-gp = P-gp (Homo sapiens, UniProt P08183)
Excerpt: Moreover, to investigate the inhibitory effect of excipients on P-gp, we also performed an intracellular accumulation study for 15 excipients using P-gp MDCK-II cells. Mitoxantrone was again used as the substrate.

Q: For “Polyoxyethyleneglyceroltrihydroxystearate [Polyoxyl 40 hydrogenated castor oil]”, which “inhibition of ABCG2 in the intact cell assay” value (“inhibition of ABCG2” for short) (ABCG2) is on record?
A: The value was “did not inhibit ABCG2”.

Q: With “D-α-tocopheryl polyethylene glycol 1000 succinate [Vitamin E TPGS]” as the substance, how does the “inhibition of ABCG2” value (ABCG2) read?
A: The value was “did not inhibit ABCG2”.

Q: What about the “mitoxantrone accumulation in P-gp MDCK-II cells (in words)” value (P-gp) of the same substance?
A: Its value is “increased”.

Q: Which “inhibition of ABCG2” value (ABCG2) does the source give for “Polyoxyethylene 40 stearate [Polyoxyl 40 stearate]” here?
A: The value was “did not inhibit ABCG2”.

Q: What about the “mitoxantrone accumulation in P-gp MDCK-II cells (in words)” value (P-gp) of the same substance?
A: The value was “increased”.
